{"sequences": {"note": "By UniProt entry, the sequences of proteins in these tests, tags left out. Residues count along the entry.", "UniProt P10721, 544-976": "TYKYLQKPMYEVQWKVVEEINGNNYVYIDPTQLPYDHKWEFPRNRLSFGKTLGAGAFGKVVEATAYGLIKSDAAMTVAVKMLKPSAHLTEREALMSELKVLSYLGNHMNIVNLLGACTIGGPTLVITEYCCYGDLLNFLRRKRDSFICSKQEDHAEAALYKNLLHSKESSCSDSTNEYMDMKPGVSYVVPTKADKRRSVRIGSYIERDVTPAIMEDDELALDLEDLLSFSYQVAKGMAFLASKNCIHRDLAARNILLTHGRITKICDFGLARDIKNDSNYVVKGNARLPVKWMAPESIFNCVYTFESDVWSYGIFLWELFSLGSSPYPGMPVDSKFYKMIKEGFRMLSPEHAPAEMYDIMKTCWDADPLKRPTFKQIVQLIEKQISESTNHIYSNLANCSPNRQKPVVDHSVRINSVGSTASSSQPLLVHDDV"}, "source": "patent US9408850B2", "about": "“Substituted indazole derivatives active as kinase inhibitors” (NERVIANO MEDICAL SCIENCES S.R.L., priority 2011, dated 2016)", "key": {"[1]": {"target": "KIT cytoplasmic domain (GST fused protein) (Homo sapiens (Human), UniProt P10721)", "test": "Biochemical assay for inhibitors of KIT kinase activity", "details": "4 nM pre activated enzyme, 4.4 microM ATP, 60 minutes at r.t.", "method": "KIT cytoplasmic domain (aa 544-976end of the 976 aminoacid long full length sequence, accession number P10721 of UniProtKB/Swiss-Prot database) was cloned into pVL vector for expression in insect cells through the baculovirus system. The GST-KIT cytoplasmic domain has been expressed in Sf21 cells infected for 66 hrs at 27° C. The recombinant protein has been purified by affinity on GSH-sepharose and eluted with glutathione. […] • i. General Principle-A specific peptidic substrate was trans-phosphorylated by the kinase in the presence of ATP traced with 33Pγ-ATP. At the end of the phosphorylation reaction, the not reacted ATP, cold and radioactive, was captured by an excess of dowex ion exchange resin that eventually settled by gravity to the bottom of the reaction plate. The supernatant was subsequently withdrawn and transferred into a counting plate that was then evaluated by β-counting. • ii. Dowex resin preparation-500 g of wet resin (SIGMA, custom prepared resin DOWEX 1×8 200-400 mesh, 2.5 Kg) were weighed out and diluted to 2 L in 150 mM sodium formate, pH 3.00. The resin was allowed to settle down overnight and then the supernatant was discarded. […] Data Fitting-Data were analyzed by an internally customized version of the SW package “Assay Explorer” that provided sigmoidal fitting of the ten-dilutions curves for IC50 determination in the secondary assays/hit confirmation routines. […]"}, "[2]": {"target": "FLT3 cytoplasmic domain (GST fused protein) (Homo sapiens (Human), UniProt P36888)", "test": "Biochemical assay for inhibitors of FLT3 kinase activity", "details": "2 nM pre activated enzyme, 254 microM ATP, 60 minutes at r.t.", "method": "FLT3 cytoplasmic domain (aa 564-993end of the 993 aminoacid long full length sequence, accession number P36888 of UniProtKB/Swiss-Prot. database) was amplified by PCR starting from a testis cDNA library and then cloned into pVL vector for expression in insect cells through the baculovirus system. The GST-FLT3 cytoplasmic domain has been expressed in Sf21 cells infected for 72 hours at 27° C. The recombinant protein has been purified by affinity on GSH-sepharose and eluted with glutathione. A further purification step has been performed on heparine sepharose. […] • i. General Principle-A specific peptidic substrate was trans-phosphorylated by the kinase in the presence of ATP traced with 33Pγ-ATP. At the end of the phosphorylation reaction, the not reacted ATP, cold and radioactive, was captured by an excess of dowex ion exchange resin that eventually settled by gravity to the bottom of the reaction plate. The supernatant was subsequently withdrawn and transferred into a counting plate that was then evaluated by β-counting. • ii. […] Data Fitting-Data were analyzed by an internally customized version of the SW package “Assay Explorer” that provided sigmoidal fitting of the ten-dilutions curves for IC50 determination in the secondary assays/hit confirmation routines. […]"}}, "data": [{"smiles": "CN1CCC(N(C)c2ccc(C(=O)Nc3n[nH]c4cc(OCCOCc5ccccc5)ccc34)cc2)CC1", "note": "[Cpd. 23, N-[6-(2-Benzyloxy-ethoxy)-1H-indazol-3-yl]-4-[methyl-(1-methyl-piperidin-4-yl)-amino]-benzamide]", "values": [{"measurement": "IC50", "setting": "[1]", "value": 109, "unit": "nM"}, {"measurement": "IC50", "setting": "[2]", "value": "< 50", "unit": "nM"}]}]}
